# Antibody variant affinities, Ab-14 light chain, assay B

Data: MIT Lincoln Laboratory AlphaSeq set, Li et al. 2023, doi:10.1038/s41467-023-39022-2, as distributed in FLAb.

Binding partner: SARS-CoV-2 spike HR2 peptide, sequence PDVDLGDISGINAS.

The variants keep the heavy chain, the linker and the frameworks of Ab-14 (scFv order VH, the linker GGGGSGGGGSGGGGS, VL).
VH: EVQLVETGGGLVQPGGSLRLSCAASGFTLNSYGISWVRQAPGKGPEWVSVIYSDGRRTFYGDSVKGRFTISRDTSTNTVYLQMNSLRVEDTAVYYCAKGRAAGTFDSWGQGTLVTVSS
VL: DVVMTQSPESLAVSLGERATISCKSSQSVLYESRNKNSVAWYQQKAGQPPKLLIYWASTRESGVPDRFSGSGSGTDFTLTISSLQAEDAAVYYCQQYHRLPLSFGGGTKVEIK

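The parent was found by panning a naive human phage display library on the peptide. Designed CDR sequences, proposed from the first random library and measured here. Group labels follow the data file (Ctrl: baseline library sampled from a position-specific scoring matrix, with some repeated check sequences; Rand: our label for a block that the file lists under HC and that is probably the random mutants of the ten best first-round binders; GP: Gaussian process model; HC: hill climbing; Gen: genetic algorithm; Gibbs: Gibbs sampling; a sequence that several methods proposed may carry one label only). The assay is AlphaSeq: two haploid yeast populations carry antibody and antigen on their surface. After mating in shaken culture at 30 °C for 16 h, diploids were selected and their barcode pairs sequenced. Scores were corrected for input abundance and mapped to Kd with protein pairs of known affinity run in the same pool. Each pool was mated in six replicate cultures.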

Variants are written as CDR1, CDR2 and CDR3 of the light chain (limits as in the source). Parent: KSSQSVLYESRNKNSVA, WASTRES, QQYHRLPLS.
This list holds designs with at most six substitutions.
Each Kd is an estimate from the mating assay, the geometric mean of the replicates in which the pair was seen; lower is stronger.
A pair that was not seen in any replicate is written "no signal"; this usually means weak binding, but a binder can also be missed.
A sequence measured in both rounds can read differently, since the two assays cover different ranges.
Three control strains display no target. For all light chain designs, 4% of the pairings with them gave a signal, with a median of 430 nM and one signal in twenty below 38 nM, so weak values seen in few replicates may be background. For each scFv, signals with the empty controls are counted beside the result.
The authors averaged sequences with at least three values out of six and counted those with two or fewer as poor binders.

CDR-L1	CDR-L2	CDR-L3	group	Kd	detected	control signals
KFHQSKLYESRNTNSVA	GASTRES	QQYHRLPLS	Ctrl	1.6 nM	6/6	0/18
KFQQSVLYESRNKNSVA	NASTRLS	QQYHRLPLS	GP_Gen	830 pM	6/6	1/18
KLSQSVLTESRNKNSVA	WASTRES	QQYHRLPLS	Ctrl	1.9 nM	6/6	2/18
KCSQSVLYESRNKNSVA	WASTRES	QQYHRLPLS	Ctrl	260 nM	1/6	0/18
KLSQSVLYESRNQNSVA	NASTRES	QQYHRLPLS	GP_Gen	1.1 nM	6/6	2/18
KSSQNVLSESRNKNSVA	WASTRES	QQPHRLPLS	Ctrl	no signal	0/6	0/18
MSMQSVLYESRNKYSVA	WASTRES	QQYHRLPLS	Ctrl	no signal	0/6	0/18
KSSQSWLYESRNKNAVA	GASFRES	QQYHRLPLS	GP_HC	480 pM	6/6	0/18
KLEQSWEYESRNKNSVA	NASTRES	QQYHRLPLS	GP_Gen	560 pM	6/6	3/18
KAQQGVLYESRNKNSVA	GASTRES	QQYHRLPLS	GP_HC	1.1 nM	6/6	1/18
KSSISYLYESMNKNSVA	NGSTRES	QQYHRLPLS	GP_HC	1.2 nM	6/6	1/18
KSQQSVLYESGNKNSVA	NASTRES	QQYSRLPLF	Ctrl	2.0 nM	6/6	0/18
IMSQSQLYESRMKNSVA	WASTRES	QQYHRLPLS	Ctrl	35 nM	6/6	2/18
KSSQSVLIESRNKNSVA	QASTRES	QQYHRLPLS	Ctrl	4.4 nM	6/6	0/18
KSSQVYLYESRNKNSVA	GASTREQ	QQYHRLPLS	GP_HC	630 pM	6/6	0/18
KQSQEELYESRNKNSVA	DASTRES	QQYHRLPLS	GP_HC	640 pM	6/6	2/18
KISQAVLYESRNKMQVA	WASTRES	QQYIRLPLS	Ctrl	11 nM	3/6	0/18
KSSPSVLYESHNKNSVA	EASTRMS	QQYHRLPLS	GP_HC	3.1 nM	6/6	0/18
KSSQSVLFESRNKNSVA	MASTRES	PQYHRLPLS	Rand	34 nM	6/6	0/18
KVSMSWLYESRNWNSVA	NASLRES	QQYHRLPLS	GP_Gibbs	2.0 nM	6/6	0/18
KVSQSQLYESRNKNSVA	HASTRES	QQYHRLPLS	GP_Gen	1.0 nM	6/6	0/18
KSSQSVLYESRNKNSVA	WARTRMS	QQYHRLPLS	Ctrl	120 nM	2/6	0/18
KQSQSVLYESVNKNSVA	EASTRES	QQYHRLPLS	GP_HC	660 pM	5/6	0/18
KSSQSVLFESRNKNSLA	DASTRES	QMYHRLPLS	Rand	480 nM	2/6	1/18
KSLQSVLYESRDKNNVA	HASTRED	QQYHRLPLS	GP_HC	1.0 nM	6/6	1/18
KLQQSEEYESRNKNSVA	SASTRES	QQYHRLPLS	GP_Gen	910 pM	6/6	0/18
HLSQSVLYESRNKNSVA	NASKRES	QQYHRLPLS	GP_Gen	440 pM	6/6	0/18
KMSQSWLYESRNKNSVA	GASTREN	QQYHRLPLS	GP_HC	510 pM	6/6	1/18
KLRQSTLYESRNKNEVA	DASTRES	QQYHRLPLS	GP_HC	3.6 nM	6/6	2/18
KSSQSVLMESRNKNSVA	DASLRES	QQYHRLPLS	GP_HC	540 pM	6/6	0/18
KSSQSVLYESNNKNSVA	NASTRIS	QQYERLPLS	Ctrl	3.8 nM	6/6	1/18
KMSSSVLDESRNCNSIA	WASTRES	QQYHRLPLS	Ctrl	15 nM	6/6	2/18
HLSWVVLYESRNKNSVA	NASTRES	QQYHRLPLS	GP_HC	1.1 nM	6/6	1/18
KSSGSVLYESHNKNSVA	NASTRMS	QQYHRLPLS	GP_HC	2.3 nM	6/6	1/18
KSSQSVLSESGNKNSVA	WASTRGS	QQYHRYPLS	Ctrl	110 nM	1/6	0/18
KFSQSVLYESRQKNSVA	EASTRES	QQYHRLPLS	GP_HC	360 pM	6/6	2/18
KSSQSVLYESINKNSVA	WASTRES	QQYHRLELS	Ctrl	5.0 nM	4/6	0/18
KQSDSVLMESRNKNSVA	DASTRES	QQYHRLPLS	GP_HC	540 pM	6/6	1/18
KQSQSFLYESRNVNSVA	GASTRDS	QQYHRLPLS	GP_HC	580 pM	6/6	2/18
KMSQSVLQESRNKNSVA	DASTRES	QQYHRLPLS	GP_HC	1.3 nM	6/6	1/18
DSSQSWLYESRNKNSVA	GASQRES	QQYHRLPLS	GP_HC	1.0 nM	6/6	0/18
LSSISYLYESPNKNSVA	EASTREP	QQYHRLPLS	GP_HC	4.0 nM	6/6	1/18
KSSQSVLYESRNKNSVA	KASTRGS	QQYHRLPLS	Ctrl	44 nM	1/6	0/18
KISQSWLYESRNKNSVA	GASTREV	QQYHRLPLS	GP_HC	590 pM	6/6	1/18
KFHQSNLYESRNKNSVA	AASTRES	QQYHRLPLS	Ctrl	1.3 nM	6/6	1/18
KVSQSWLYESRNKNSVA	NASQRES	QSYHRLPLS	GP_Gen	3.4 nM	4/6	0/18
KLQQSWLYESRNKNSVA	NASTREQ	QQYHRLPLS	GP_Gen	1.3 nM	6/6	1/18
KWSQSVLYESRNKNSVA	RASTRIS	QQYHRTPLS	Ctrl	no signal	0/6	2/18
KSSWSVLYESNNKNSVA	AASTRED	QQYHRLPLS	GP_HC	2.6 nM	6/6	1/18
KSSQSVLYETSNKNSVA	WASTRES	QQYHRLPLS	Ctrl	72 nM	6/6	1/18
KVLQSVVYEERNKNSVA	HASTRED	QQYHRLPLS	GP_HC	800 pM	6/6	0/18
KSSQSVLYESRNKNSVA	QASMRES	QQYHRLPLS	Ctrl	55 nM	6/6	2/18
KSSQSVWYESRNKNSVA	DASTREA	QQYHTLVLS	Ctrl	no signal	0/6	0/18
KSSQSVLMESRNFNSVA	DASTRES	QQYHRLPLS	GP_HC	980 pM	6/6	0/18
KSSDSYLYESRNKNSVA	AASTRES	QQYHRLPLS	GP_HC	550 pM	6/6	4/18

7 of these entries, quoted again:

{"CDR-L1": "KQSQSVLYESVNKNSVA", "CDR-L2": "EASTRES", "CDR-L3": "QQYHRLPLS", "group": "GP_HC", "Kd": "660 pM", "detected": "5/6", "control signals": "0/18"}
{"CDR-L1": "KMSQSWLYESRNKNSVA", "CDR-L2": "GASTREN", "CDR-L3": "QQYHRLPLS", "group": "GP_HC", "Kd": "510 pM", "detected": "6/6", "control signals": "1/18"}
{"CDR-L1": "DSSQSWLYESRNKNSVA", "CDR-L2": "GASQRES", "CDR-L3": "QQYHRLPLS", "group": "GP_HC", "Kd": "1.0 nM", "detected": "6/6", "control signals": "0/18"}
{"CDR-L1": "KFSQSVLYESRQKNSVA", "CDR-L2": "EASTRES", "CDR-L3": "QQYHRLPLS", "group": "GP_HC", "Kd": "360 pM", "detected": "6/6", "control signals": "2/18"}
{"CDR-L1": "KVSQSQLYESRNKNSVA", "CDR-L2": "HASTRES", "CDR-L3": "QQYHRLPLS", "group": "GP_Gen", "Kd": "1.0 nM", "detected": "6/6", "control signals": "0/18"}
{"CDR-L1": "KSSDSYLYESRNKNSVA", "CDR-L2": "AASTRES", "CDR-L3": "QQYHRLPLS", "group": "GP_HC", "Kd": "550 pM", "detected": "6/6", "control signals": "4/18"}
{"CDR-L1": "KSSQSVLFESRNKNSLA", "CDR-L2": "DASTRES", "CDR-L3": "QMYHRLPLS", "group": "Rand", "Kd": "480 nM", "detected": "2/6", "control signals": "1/18"}